Measured values published in article PMC9012132 (2021).

How the values were obtained:
[1] = target: T1, BPTF bromodomain (Homo sapiens, UniProt Q12830); assay: Reported in vitro affinity for BPTF bromodomain; assay type: binding; details: comparison value for BPTF
[2] = target: T1, BPTF bromodomain; details: read-out: Kd for BPTF bromodomain; first reported BPTF inhibitor; cited from earlier work

ligand efficiency [1]: 0.22
SMILES: COC(=O)c1cccc(NC(=O)NC2CCN(c3ccnc(Nc4ccc(F)cc4)n3)C2)c1 (centres unmarked) [AU1]
Kd [2]: 2800 nM
